Experimental data as given in ChEMBL document CHEMBL5247575 (J Med Chem, 2018).

Key:
[1] = Inhibition of bacteria OXA-48 assessed as apparent inhibition constant using nitrocefin as substrate
[2] = Inhibition of bacteria OXA-23 assessed as apparent inhibition constant using nitrocefin as substrate
[3] = Inhibition of bacteria OXA-23/40 assessed as apparent inhibition constant using nitrocefin as substrate

In the case of `O=C(NNC(=O)[C@@H]1CC[C@@H]2CN1C(=O)N2OS(=O)(=O)O)[C@@H]1CCCNC1` [ZIDEBACTAM], the pKi [1] was < 4.00, the pKi [2] was < 4.00 and the pKi [3] was < 4.00.
In the case of `O=C(NNC(=O)[C@@H]1CC[C@@H]2CN1C(=O)N2OS(=O)(=O)O)[C@@H]1CCNC1`, the pKi [1] was < 4.00, the pKi [2] was < 4.00 and the pKi [3] was < 4.00.
In the case of `NC(=O)[C@@H]1CC[C@@H]2CN1C(=O)N2OS(=O)(=O)[O-].[Na+]` [AVIBACTAM SODIUM], the pKi [2] was < 4.00 and the pKi [3] was < 4.00.

pKi: −log10 of the molar value.
